In ChEMBL document CHEMBL1151742, “Design, synthesis, and characterization of high-affinity, systemically-active galanin analogues with potent anticonvulsant activities” (J Med Chem, 2008) one finds Kd data, which are given here for one compound.

This test addresses T1, Galanin receptor type 3 (Homo sapiens, UniProt O60755).
T1 sequence (O60755 whole entry): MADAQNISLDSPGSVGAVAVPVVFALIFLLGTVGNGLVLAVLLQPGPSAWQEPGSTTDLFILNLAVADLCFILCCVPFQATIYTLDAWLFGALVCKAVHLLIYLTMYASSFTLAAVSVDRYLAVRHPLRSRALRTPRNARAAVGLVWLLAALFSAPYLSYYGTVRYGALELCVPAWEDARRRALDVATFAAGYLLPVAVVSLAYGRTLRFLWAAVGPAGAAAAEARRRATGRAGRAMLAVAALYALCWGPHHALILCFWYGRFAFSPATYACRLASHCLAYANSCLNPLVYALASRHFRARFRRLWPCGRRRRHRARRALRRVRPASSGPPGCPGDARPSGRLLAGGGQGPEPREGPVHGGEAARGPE
The test can be described thus: Binding affinity to human GalR3.

Consider `CC[C@H](C)[C@H](NC(=O)[C@H](C)NC(=O)[C@H](Cc1cnc[nH]1)NC(=O)[C@@H]1CCCN1C(=O)CNC(=O)[C@H](CC(C)C)NC(=O)[C@H](CC(C)C)NC(=O)[C@H](Cc1ccc(O)cc1)NC(=O)CNC(=O)[C@H](C)NC(=O)[C@H](CO)NC(=O)[C@H](CC(N)=O)NC(=O)[C@H](CC(C)C)NC(=O)[C@@H](NC(=O)[C@H](Cc1c[nH]c2ccccc12)NC(=O)CN)[C@@H](C)O)C(=O)O`, for which the equilibrium dissociation constant (Kd) worked out at 315 nM.
